# Antibody variant affinities, Ab-14 light chain, assay B

The measurements come from Li et al. 2023 (doi:10.1038/s41467-023-39022-2) through the FLAb antibody collection.

Target: peptide PDVDLGDISGINAS, taken from heptad repeat 2 (HR2) of SARS-CoV-2 spike.

Ab-14 is the parent antibody, in scFv form: VH, then the linker GGGGSGGGGSGGGGS, then VL. The heavy chain is unchanged in all variants.
VH: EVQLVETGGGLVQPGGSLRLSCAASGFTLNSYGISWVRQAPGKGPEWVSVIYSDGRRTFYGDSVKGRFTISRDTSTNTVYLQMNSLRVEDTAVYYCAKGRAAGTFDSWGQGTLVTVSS
VL: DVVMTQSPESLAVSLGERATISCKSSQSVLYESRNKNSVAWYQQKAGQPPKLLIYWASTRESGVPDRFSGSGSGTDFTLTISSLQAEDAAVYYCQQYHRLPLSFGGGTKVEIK

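This is the validation round: designs drawn from the data on random variants, tested in the same kind of assay. Group labels follow the data file (Ctrl: baseline library sampled from a position-specific scoring matrix, with some repeated check sequences; Rand: our label for a block that the file lists under HC and that is probably the random mutants of the ten best first-round binders; GP: Gaussian process model; HC: hill climbing; Gen: genetic algorithm; Gibbs: Gibbs sampling; a sequence that several methods proposed may carry one label only). AlphaSeq pools MATa yeast showing the antibodies with MATalpha yeast showing the peptide. The frequency of each diploid, read from paired DNA barcodes, reflects how well the two displayed proteins bind. A regression on co-assayed BCL2-family reference pairs converts the normalised counts of each replicate to an apparent Kd. Mating was done six times.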

Changes read parent residue, position, new residue, counted from the first residue of the VL shown.
This list holds designs with at most six substitutions.
Numbers give log10(Kd / nM), so 0 is 1 nM and 3 is 1 µM. Smaller is tighter.
Replicates are averaged; those with no signal do not enter the mean.
A pair that was not seen in any replicate is written "nd"; this usually means weak binding, but a binder can also be missed.
The authors' rule: three or more of the six replicates give a measured affinity, fewer mean a poor binder.
As a blank, each scFv also met three strains without target: over all light chain designs, 4% of these pairings were detected, typically at 2.64 and seldom below 1.59. The control count says in how many pairings with the empty strains this scFv gave a signal.
The range of this assay differs from that of the first round, and the authors advise against merging the two.

The variant Y31F N37D W56D T59Q [Rand] showed 0.34 (6 of 6 replicates; controls 3 of 18). With S25L S26Y N35Q W56N T59Q [GP_Gen] the result was 0.12 (6 of 6 replicates; controls 1 of 18). With S26L V29H W56Q S62D H98G [GP_HC] the result was -0.08 (6 of 6 replicates; controls 2 of 18). The variant S25L S26R V29T K36Q W56D [GP_HC] gave -0.29 (6 of 6 replicates; controls 1 of 18). The variant K24H L30K Y31M W56D [GP_HC] gave -0.11 (6 of 6 replicates; controls 0 of 18). With S25Q S38Q S62V [Ctrl] the result was 2.34 (4 of 6 replicates; controls 1 of 18).

The variant W56D R60Q [Ctrl] showed 0.55 (6 of 6 replicates; controls 0 of 18). For W56S T59C Y97T [Ctrl], the assay gave 2.55 (1 of 6 replicates; controls 1 of 18). The variant V29W R34L W56G S62N [GP_HC] gave 0.07 (6 of 6 replicates; controls 1 of 18). The variant S28M A57L E61P H98Q [Ctrl] gave 2.18 (2 of 6 replicates; controls 2 of 18). The variant K24F W56D [Ctrl] showed 0.14 (6 of 6 replicates; controls 2 of 18). The variant S26P S28A S103E [Ctrl] gave 2.10 (1 of 6 replicates; controls 0 of 18).

The variant S25M V29E Y31F W56D [GP_HC] showed -0.31 (6 of 6 replicates; controls 0 of 18). The variant S25L S26P V29E W56N E61M [GP_Gen] gave -0.24 (6 of 6 replicates; controls 0 of 18). For S26F V29E Y31E S33Q W56S E61L [GP_Gibbs], the assay gave -0.36 (6 of 6 replicates; controls 0 of 18). For S25F W56E H98V [Ctrl], the assay gave 0.43 (6 of 6 replicates; controls 2 of 18). The variant S25T E61S Q96S H98T [Ctrl] showed 1.97 (5 of 6 replicates; controls 1 of 18). The variant S25V S26Y Q27I V29F W56E [GP_HC] gave 1.12 (6 of 6 replicates; controls 0 of 18).

The variant S28N H98S [Ctrl] showed 1.31 (6 of 6 replicates; controls 0 of 18). For S25L S26Q W56N E61L S62M [GP_Gen], the assay gave 0.04 (6 of 6 replicates; controls 1 of 18). For S25W S26L K36F W56N S62D [GP_HC], the assay gave -0.04 (6 of 6 replicates; controls 0 of 18). The variant S25L S26Q V29F W56E [GP_Gen] gave 0.11 (6 of 6 replicates; controls 2 of 18). With S25V V29W L30W W56N [GP_Gen] the result was 0.03 (6 of 6 replicates; controls 1 of 18). The variant Q27D L30S [Ctrl] showed 2.20 (1 of 6 replicates; controls 0 of 18).

The variant V29W R34H A40K W56G [Rand] gave nd (0 of 6 replicates; controls 0 of 18). With V29P W56G [Ctrl] the result was 0.33 (6 of 6 replicates; controls 1 of 18). With S26P V29Q K36F W56N S62D [GP_HC] the result was -0.10 (6 of 6 replicates; controls 0 of 18). The variant Q27K Y31F W56N S62K [GP_HC] gave 1.03 (6 of 6 replicates; controls 0 of 18). The variant S26Q L30P S38N W56H S62D [GP_HC] showed 0.11 (6 of 6 replicates; controls 3 of 18). The variant Y31G S33Q W56D A57V [GP_HC] showed 0.44 (6 of 6 replicates; controls 2 of 18).

The variant S25F Q96R [Ctrl] gave 2.58 (5 of 6 replicates; controls 0 of 18). The variant S25L V29T E32D R34Q W56N [GP_HC] showed -0.27 (6 of 6 replicates; controls 0 of 18). The variant Q27W V29M W56D [GP_HC] gave 0.31 (6 of 6 replicates; controls 0 of 18). With S25L V29F L30N W56M [Ctrl] the result was 0.88 (6 of 6 replicates; controls 0 of 18). The variant S25C R34N T59D Q95P [Ctrl] showed 2.04 (4 of 6 replicates; controls 0 of 18). With K24R W56R E61A [Ctrl] the result was 2.58 (2 of 6 replicates; controls 2 of 18).

The variant S25M S26E S28G N37G W56N T59V [GP_HC] showed 0.35 (6 of 6 replicates; controls 0 of 18). The variant Q27I V29N Y31G W56E [GP_HC] showed 1.10 (6 of 6 replicates; controls 0 of 18). With S25L V29E W56E T59Y [GP_Gen] the result was 0.16 (6 of 6 replicates; controls 0 of 18). For S25V S28A V29Q W56Q T59H S62Q [GP_Gibbs], the assay gave 0.15 (6 of 6 replicates; controls 1 of 18). For S25I Q27P W56N S62Q [Ctrl], the assay gave -0.10 (6 of 6 replicates; controls 1 of 18). With S25L V29Q W56S T59H S62H [GP_Gibbs] the result was 0.51 (6 of 6 replicates; controls 2 of 18).

For S25L S26M Q27W V29M L30Q W56G [GP_Gibbs], the assay gave 0.20 (6 of 6 replicates; controls 1 of 18). The variant S25L S26Y Q27P V29Y W56Q [GP_HC] showed -0.11 (6 of 6 replicates; controls 1 of 18). For S25L S26P V29M L30P W56N [GP_Gen], the assay gave -0.10 (6 of 6 replicates; controls 1 of 18). The variant S25F S28W N35T W56N S62E [GP_HC] gave -0.01 (6 of 6 replicates; controls 1 of 18).

The closing 6 entries, repeated:

With S25I Q27P W56N S62Q [Ctrl] the result was -0.10 (6 of 6 replicates; controls 1 of 18).
With S25L V29Q W56S T59H S62H [GP_Gibbs] the result was 0.51 (6 of 6 replicates; controls 2 of 18).
With S25L S26M Q27W V29M L30Q W56G [GP_Gibbs] the result was 0.20 (6 of 6 replicates; controls 1 of 18).
With S25L S26Y Q27P V29Y W56Q [GP_HC] the result was -0.11 (6 of 6 replicates; controls 1 of 18).
With S25L S26P V29M L30P W56N [GP_Gen] the result was -0.10 (6 of 6 replicates; controls 1 of 18).
With S25F S28W N35T W56N S62E [GP_HC] the result was -0.01 (6 of 6 replicates; controls 1 of 18).